Assay: Thermal stability by TGA, supported vs. unsupported, evaluation method not marked
Details: not supported/neat; no method footnote
Protocol: To test for such influence, adsorption experiments with butylmethylimidazolium acetate [BMIM][OAc] on four different porous silica types was carried out (FIG. 7a, 7b). The silicas had the following pore diameters: PG2000 (pore diameter 2000 Å), PG500 (pore diameter 500 Å), PG75 (pore diameter 75 Å) and MCM-41 (pore diameter 50 Å).
The silicas had the following pore diameters: PG2000 (pore diameter 2000 Å), PG500 (pore diameter 500 Å) and PG75 (pore diameter 75 Å).
Thermal stability was measured by using thermogravimetric analysis (TGA), with isocratic heating at 5° C. min^−1 under an inert nitrogen and/or dried air atmosphere. The decomposition temperatures were determined from both the T5% onset (onset temperature for 5% decomposition) in an isocratic TGA experiment, and from the inflection point (temperature at the inflection point of TGA curve, which indicates the point where the degradation rate is maximum). For T5% onset measurements, thermal stability was determined in a Mettler-Toledo Star^e TGA/DSC unit by heating from 25° C. to 800° C. with a heating rate of 5° C./min under nitrogen. For inflection point measurements, thermal stability was determined using a TA2950 TGA unit by heating from 25° C. to 800° C. with a heating rate of 5° C./min under dried air.

Substance: Choline Acyclovir [Choline Acyclovir [1]]
- Thermal Stability: 122.51 °C

Source: patent US20140309419A1, “METHOD FOR ENHANCING THE THERMAL STABILITY OF IONIC COMPOUNDS” (Danmarks Tekniske Universite, priority 2011, published 2014)
